Results published in patent US20030154517A1, “Efficiency agrobacterium-mediated wheat transformation method” (priority 2001, published 2003).
Like-named read-outs stand apart in the source and are kept apart here.

Key:
[1] = system: immature embryos of wheat (Triticum aestivum L) cv Bobwhite; assay: Agrobacterium-mediated wheat transformation, glyphosate selection (transformation efficiency); type: cell-based; settings: 20 μM CuSO4 in MMS0C; Table 13
Source text: (§1) Immature embryos of wheat (Triticum aestivum L) cv Bobwhite were isolated from the immature caryopsis (wheat spikelets) 12-15 days after pollination, and cultured on CM4C (Table 2) for 1-8 days, most typically for 4-6. The embryos without embryogenic callus were selected for Agrobacterium inoculation.
A disarmed Agrobacterium strain C58 (ABI) harboring a binary vector was used for all the experiments. For the control experiments, cultures of Agrobacterium were initiated from glycerol stocks or from a freshly streaked plate and grown overnight at 26° C.-28° C. with shaking (approximately 150 rpm) to mid-log phase (about OD660=1-1.5) in liquid LB medium, pH 7.0 (Miller, 1972) containing 50 mg/L kanamycin, 50 mg/L streptomycin and spectinomycin, and 25 mg/L chloramphenicol with 200 μM acetosyringone (AS). The Agrobacterium cells were resuspended in the inoculation medium and the density was adjusted to an OD660 of 1. The immature embryos cultured in CM4C medium were transferred into sterile petri plates (16×20 mm) or wells of a 6-well cell culture plate (Costar Corporation, Cambridge, Mass.) containing 10 mL of inoculation medium per petri plate or 5 mL per cell culture cluster plate. An equal amount of the Agrobacterium cell suspension was added such that the final concentration of Agrobacterium cells was an OD660 of 0.5. […]

wheat callus cultures = settings: no glyphosate
Protocol: Five treatments were done: 1) control (0.1 μM Cu as in MS medium) without additional copper; 2) 2 μM copper, applied at delay and selection for 2 weeks total; 3) 2 μM Cu at 1st regeneration for 2 weeks; 4) 2 μM Cu at 2nd regeneration for 2 or more weeks; and 5) 2 μM Cu constantly present at all of these stages.

[2] = system: immature embryos of wheat; assay: Agrobacterium-mediated wheat transformation, nptII (G418/kanamycin) selection (transformation efficiency); type: cell-based, Triticum aestivum L
Source text: as §1
A disarmed Agrobacterium strain C58 (ABI) harboring a binary vector was used for all the experiments. […] The Agrobacterium cells were resuspended in the inoculation medium and the density was adjusted to an OD660 of 1. […] An equal amount of the Agrobacterium cell suspension was added such that the final concentration of Agrobacterium cells was an OD660 of 0.5. In most experiments, pluronic F68 was added to the inoculation mixture at a final concentration of 0.01%. The ratio between the Agrobacterium and immature embryos (IEs) was about 10 mL: 20-200 IEs. The conditions for inoculation were temperatures from about 23° C.-26° C. with a duration from about 5-60 minutes.
After the inoculation period, the remaining Agrobacterium cells were removed from the explants by using the in-house vacuum equipment. A piece of sterile Whatman No. 1 filter paper (to fit the size of the petri plate) was placed in each of 60×15 or 60×20 mm petri dishes without additional liquid or agar-supplemented media. Two hundred microliters of sterile water was placed in the middle of the filter paper. […]

Which results are given for `O=S(=O)([O-])[O-].[Cu+2]` [CuSO4, copper sulfate]?
average copper-treated/control ratio (TE) [1]: 2.6; Shoots/Regenerable callus, ratio (wheat callus cultures; 2 μM Cu at 1st Reg., 2 w.): 1.4; Shoots/Regenerable callus, ratio (wheat callus cultures; 2 μM Cu at 2nd Reg. (MMS0C), 2 w.): 2; 1 shoot/callus (wheat callus cultures; 2 μM Cu at 2nd Reg., 2 w.): 10.8; Shoots/Regenerable callus, ratio (wheat callus cultures; 2 μM Cu at Delay/Sel., 2 w.): 1.6; Shoots/Regenerable callus, ratio (wheat callus cultures; 2 μM Cu at all stages, 6 w.): 1.2; Independent transgenic events/explants [2]: 33/108
